From ChEMBL document CHEMBL5104176, “Highly Potent and Selective Dopamine D4 Receptor Antagonists Potentially Useful for the Treatment of Glioblastoma” (J Med Chem, 2022)
pKi: −log10 of the molar value.

Amino acid sequences for entries named in this document (tags omitted).
UniProt P14416, whole entry: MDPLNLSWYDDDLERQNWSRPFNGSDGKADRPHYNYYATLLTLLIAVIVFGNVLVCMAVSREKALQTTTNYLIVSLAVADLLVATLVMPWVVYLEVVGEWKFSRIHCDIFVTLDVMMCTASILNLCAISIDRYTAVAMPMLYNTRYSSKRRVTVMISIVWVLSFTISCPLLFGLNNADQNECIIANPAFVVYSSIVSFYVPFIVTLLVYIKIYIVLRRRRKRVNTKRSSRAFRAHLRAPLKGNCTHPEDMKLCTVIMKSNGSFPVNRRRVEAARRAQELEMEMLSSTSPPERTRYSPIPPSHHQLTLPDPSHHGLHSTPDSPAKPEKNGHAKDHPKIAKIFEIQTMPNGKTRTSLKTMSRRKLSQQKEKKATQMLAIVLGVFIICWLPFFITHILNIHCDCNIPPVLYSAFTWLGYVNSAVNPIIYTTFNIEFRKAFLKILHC

Legend:
D(2) dopamine receptor = D(2) dopamine receptor (Homo sapiens, UniProt P14416); assay: Displacement of [3H]N-methylspiperone from human D2L receptor expressed in HEK293T cell membrane incubated for 1 hr by MicroBeta scintillation counting method; assay type: cell membranes
How it was run: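 Membranes from stably transfected HEK293 cells (hD2L, hD3 or hD4.4), 20 μg (D2, D3) or 30 μg (D4) protein/well. Incubated 1 h at room temperature in EBSS binding buffer, pH 7.4, with 0.4 nM [3H]N-methylspiperone and 10 half-log dilutions in triplicate. 10 μM (+)-butaclamol defines nonspecific binding. GF filtration, scintillation counting. Ki by Cheng–Prusoff from ≥3 experiments; selectivity is the Ki ratio.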

[1] = Selectivity ratio of Ki for displacement of [3H]N-methylspiperone from human D3R expressed in HEK293T cell membrane to Ki for displacement of [3H]N-methylspiperone from human D4.4 receptor expressed in HEK293T cell membrane
[2] = Selectivity ratio of Ki for displacement of [3H]N-methylspiperone from human D2L receptor expressed in HEK293T cell membrane to Ki for displacement of [3H]N-methylspiperone from human D4.4 receptor expressed in HEK293T cell membrane

- pKi (D(2) dopamine receptor): 7.26
Structure (SMILES): O=C1CCc2ccccc2N1CCCN1CCN(c2cccc(Cl)c2Cl)CC1
- Ratio Ki [1]: 30
- Ratio Ki [2]: 79
